Values quoted from earlier work, collected in patent US20070203190A1, “Hydroxylamines and derivatives for the inhibition of complement activation” (priority 2006, published 2007).

Tested on: complement activation
Details: in vivo animal models

5G1.1-scFv: a humanized monoclonal anti-C5 antibody [Compound 5G1.1-scFv]
suppression of complement activation: suppress complement activation
